In the library only some 2.3% were active in any assay of this set; here they are far more common.
Nrf2 ARE act: activators of Nrf2 (ARE) signaling | AREc32 ARE-luciferase reporter (MCF7-derived line), luminescence, 24 h | hit rate 0.31% among 410,000 | AID 624171 | Potency, µM (titrated, usually from 46.1 µM), inactives show top-dose activation, hits mostly activators; note: potency is the fitted concentration of half-maximal effect; % of control where 0% means no effect; nearly all actives have a fitted effect of over 65% in size
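For detection, Steady-Glo was added and plates sat 30 min at RT; before that, AREc32_Fluc cells grown overnight in OPTI-MEM/5% FBS had been treated with 23 nL compound for 24 hr at 37 deg C.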
A549 tox-1: counter-screen for Nrf2 inhibitors: cytotoxicity in A549 cells | AID 504648 | Potency, µM (series often up to 46 µM), without a hit: at the highest dose activity change, negative = cytotoxicity, hits mostly inhibitors | hit rate 0.16% among 390,000 | A549 ARE-Fluc cells, CellTiter-Fluor viability, 18-24 h; note: potency is the fitted concentration of half-maximal effect; % is set by controls: 0 for no effect and ±100 for the full control effect
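A549 ARE_Fluc cells in 5% FBS OPTI-MEM were exposed to compounds in concentration-response for 18-24 h at 37 deg C. Viability was read by CellTiter-Fluor fluorescence (Ex 405/Em 525) after 30 min, before the luciferase read.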
Mito fusion yeast: inhibitors of mitochondrial division or activators of mitochondrial fusion. S. cerevisiae fusion-defective mutant growth rescue, CellTiterGlo 48 h. Potency, µM (top dose mostly 46.1 µM), for inactives: at the highest dose growth rescue (activation), hits mostly activators. hit rate 0.23% among 320,000. AID 485298; note: potency is the fitted concentration of half-maximal effect; % of control where 0% means no effect; nearly all actives have a fitted effect of over 45% in size
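Yeast fusion mutant, YPEG (non-fermentable carbon), compound, 48 h at 37C non-permissive; CellTiterGlo added, 10 min RT, luminescence read. Rescued growth = division inhibition.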
Nrf2 inh: blocks Nrf2 signaling. Potency, µM (highest dose often 46 µM), inactives show at the top dose activity change, negative = inhibition, hits mostly inhibitors. hit rate 2.1% among 360,000. A549 ARE-Fluc reporter, luciferase luminescence, 18-24 h. AID 504444; note: potency is the fitted concentration of half-maximal effect; % is set by controls: 0 for no effect and ±100 for the full control effect; nearly all actives have a fitted effect of over 60% in size
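Cells were seeded and rested 2 h, then exposed to compounds for 18-24 h. CellTiter-Fluor was read first as a viability measure. BugLite was added 15 min before the final luminescent read of ARE-luciferase activity in A549 cells.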
miR-21 FLuc: miR-21 reporter, rising signal; HeLa miR-21 FLuc reporter, luciferase, 48 h; Potency, µM (titrated, usually from 38.3 µM), without a hit: top-dose reporter change, positive = more light; AID 2288; 340,000 tested, under 10 active; active = well fitted rising curve with a large enough effect; inconclusive = small, poorly fitted or top-dose-only effect; inactive = no such curve, though single readings can be large or run the other way;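 further: % of control where 0% means no effect; miR-21 action dims this reporter so a rising signal means less miR-21 action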
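Using DMEM plus 10% FBS, HeLa miR-21-FLuc cells are incubated with test compounds (final up to about 40uM) for 48 hours; firefly luciferase signal is then imaged following reagent-mediated lysis.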
FLuc enzyme inh: counter-screen for Nrf2 inhibitors: firefly luciferase enzyme inhibition; shares compounds with Nrf2 inh; purified firefly luciferase, luminescence inhibition; Potency, µM (highest dose often 57.5 µM), for the others: top-dose activity change, negative = inhibition, hits mostly inhibitors; hit rate 4% among 1,400; AID 720522; note: potency is the fitted concentration of half-maximal effect; % is set by controls: 0 for no effect and ±100 for the full control effect; nearly all actives have a fitted effect of over 65% in size
A549 tox-2: counter-screen for Nrf2 inhibitors: cytotoxicity in A549 ARE cells; Potency, µM (top dose mostly 46.1 µM), inactives show top-dose activity change, negative = cytotoxicity, actives largely listed as inhibitors; hit rate 2% among 1,400; A549 ARE-Fluc cells, cytotoxicity counterscreen; shares compounds with Nrf2 inh;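 note: potency is the fitted concentration of half-maximal effect; cells exposed to compounds for 18 to 24 hours; % is set by controls: 0 for no effect and ±100 for the full control effect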
Nrf2 ARE inh: confirmation of Nrf2 inhibitors in A549 ARE reporter cells | shares compounds with Nrf2 inh | A549 ARE-firefly luciferase reporter, luminescence | Potency, µM (doses to about 46.1 µM), without a hit: at the highest dose activity change, negative = inhibition, actives largely listed as inhibitors | hit rate 74% among 1,400; note: potency is the fitted concentration of half-maximal effect; % is set by controls: 0 for no effect and ±100 for the full control effect; nearly all actives have a fitted effect of over 65% in size
Active calls of the source: *; ? = inconclusive; nt = no result shown; [ ] = dose if it differs, or a comment. Calls come from the whole dose curve; as a rule, active = well fitted curve in the direction sought with a large enough effect; inconclusive = small, poorly fitted or top-dose-only effect, or another doubt; inactive = no such curve, though single readings can be large; an effect the other way counts as inactive or inconclusive.

SMILES	Nrf2 ARE act	A549 tox-1	Mito fusion yeast	Nrf2 inh	miR-21 FLuc	FLuc enzyme inh	A549 tox-2	Nrf2 ARE inh
CCc1ccc(NC(=O)c2cc3c(=O)n(Cc4cccs4)ccc3nc2C)cc1	6%	-2%	nt	-4%	-4%	nt	nt	nt
Nc1nncn1C(=O)c1ccccc1Cl	0%	-7%	-6%	-29%	-3%	nt	nt	nt
Nc1nncn1C(=O)c1ccc(Cl)cc1Cl	-2%	-1%	-2%	1.6µM*	-2%	-10%	-20%	nt
CC(=O)c1sc(NC(=O)C2(F)C(F)(F)C(F)(F)C(F)(F)C(F)(F)C2(F)F)nc1C	7%	?	-6%	5.8µM*	?	?	?	6.5µM*
CCc1ccc(-n2nc3ccc(NC(=O)COc4ccc(OC)cc4)cc3n2)cc1	3%	-6%	nt	1.6µM*	-12%	-18%	7%	-1%
COc1ccc(CN(C)C(=O)/C=C/c2ccc(S(=O)(=O)N3CCCCCC3)cc2)cc1	2%	-15%	6%	9.2µM*	nt	-12%	-18%	?
COc1ccccc1NC(=O)c1oc2ccccc2c1NC(=O)c1ccccc1C(F)(F)F	5%	-1%	nt	5%	7%	nt	nt	nt
Cc1ccccc1NC(=O)c1cc2c(-c3ccccc3)nn(-c3ccccc3)c2s1	-1%	1%	nt	?	0%	nt	nt	nt
CCc1ccc(NC(=O)C2CCN(S(=O)(=O)c3c(C)noc3/C=C/c3cccs3)CC2)cc1	2%	-1%	nt	-18%	3%	nt	nt	nt
Cc1cc2ccccc2c[n+]1C1CCCCC1	nt	nt	nt	nt	nt	0%	-8%	1.3µM*
O=C(NC1CCCCC1)c1ccc2ccccc2c1	4%	nt	nt	nt	nt	nt	nt	nt
Cc1cccc(Cl)c1NC(=O)N1CCCN(c2nc3ccc(Cl)cc3s2)CC1	7%	?	16%	9.2µM*	22%	-16%	-30%	9.2µM*
CCOC(=O)c1c(NC(=O)/C=C/c2ccc(OCC)c(OC)c2)sc2c1CCC2	-1%	-3%	nt	7%	-2%	nt	nt	nt
Cc1ccc(S(=O)(=O)N2CCN(c3ncnc4sccc34)CC2)cc1C	4%	-11%	18%	?	nt	nt	nt	nt
O=S(=O)(c1ccc2c(c1)OCCO2)N1CCN(c2ncnc3sccc23)CC1	9%	-29%	0%	2.3µM*	15%	0%	2%	nt
C=C(c1nc2ccccc2s1)C1Cc2cccc3c2N(CCC3)C1 (stereo unspecified)	nt	nt	nt	nt	nt	12µM*	-72%	2.6µM*
CCN(CC)c1ccc(/C=C/c2ccc3ccc(OC)cc3[n+]2CC)cc1	-3%	?	-46%	4.6µM*	?	-23%	?	5.2µM*
COc1ccc(OCC(=O)Nc2cc(-c3ccccc3F)nn2-c2ccccc2)cc1	-1%	-10%	nt	nt	-11%	nt	nt	nt
CCN(CC)CCCNC(=O)CCCn1c(=O)[nH]c2ccc(Br)cc2c1=O	0%	1%	nt	3%[9.27 µM]	-1%	nt	nt	nt
O=C(c1cc(COc2cccc3cnccc23)on1)N1CCCC(CCCO)C1 (stereo unspecified)	0%	-28%	-1%	3.7µM*	?	-2%	-13%	2.3µM*
COCC1CCN(C(=O)c2cc(COc3cccc4cnccc34)on2)CC1	-1%	-1%	1%	?	27%	nt	nt	nt
O=C(CSc1nc2ccccc2nc1Cc1ccccc1F)Nc1cccc(C(F)(F)F)c1	1%	-15%	nt	-39%[9.27 µM]	-8%	nt	nt	nt
O=C(CCCN1C(=O)/C(=C/c2ccccc2Cl)SC1=S)NNC(=O)c1ccc(Cl)cc1Cl	-2%	0%	0%	6.5µM*	?	-12%	-19%	7.3µM*
O=C(CCN1C(=O)/C(=C/c2ccccc2Cl)SC1=S)Nc1ccccc1C(=O)O	?	1%	15%	-2%	0%	nt	nt	nt
Cc1c(Cl)cccc1NC(=O)Cn1cc(C(=O)C2CCCCC2)c2ccccc21	0%	-21%	nt	2.9µM*	?	0%	-16%	nt
O=C(c1ccc(S(=O)(=O)Nc2ccc(F)cc2)cc1)N1CCN(c2ccccn2)CC1	2%	?	14%	2.9µM*	18%	-1%	-5%	15µM*
Cc1ccc(NS(=O)(=O)c2ccc(C(=O)N3CCN(c4ncccn4)CC3)cc2)cc1	1%	?	5%	5.8µM*	19%	-1%	-4%	8.2µM*
O=C(c1ccc(NS(=O)(=O)c2ccc(F)cc2)cc1)N1CCCCC1	0%	1%	2%	-22%	nt	nt	nt	nt
CCOc1ccc2c(c1)C(=NNC(=O)c1ccncc1)c1cc(OCC)ccc1-2	3%	-18%	1%	5.8µM*	-19%	?	?	5.2µM*
CCOc1ccc(NC(=O)c2ccncc2)cc1	0%	-3%	-4%	3%	-26%	nt	nt	nt

An excerpt from above in order of molar mass, falling.
SMILES	Nrf2 ARE act	A549 tox-1	Mito fusion yeast	Nrf2 inh	miR-21 FLuc	FLuc enzyme inh	A549 tox-2	Nrf2 ARE inh
O=C(CCN1C(=O)/C(=C/c2ccccc2Cl)SC1=S)Nc1ccccc1C(=O)O	?	1%	15%	-2%	0%	nt	nt	nt
CCOc1ccc2c(c1)C(=NNC(=O)c1ccncc1)c1cc(OCC)ccc1-2	3%	-18%	1%	5.8µM*	-19%	?	?	5.2µM*
COCC1CCN(C(=O)c2cc(COc3cccc4cnccc34)on2)CC1	-1%	-1%	1%	?	27%	nt	nt	nt

(cont.)
SMILES	Nrf2 ARE act	A549 tox-1	Mito fusion yeast	Nrf2 inh	miR-21 FLuc	FLuc enzyme inh	A549 tox-2	Nrf2 ARE inh
Cc1ccc(CNC(=O)C(=O)NCC(c2cccnc2)N2CCN(c3ccccc3F)CC2)cc1 (stereo unspecified)	0%	?	nt	?	8%	nt	nt	nt
CCCCCCCn1ccc(=N)cc1	0%	-19%	0%	2.9µM*	?	2%	-13%	6.5µM*
CCCCCCCCCn1ccc(=N)cc1	4%	?	-28%	3.3µM*	?	3%	-24%	8.2µM*
CCn1ccc(=N)cc1	0%	-16%	3%	nt	-2%	nt	nt	nt
CCCCCCN1CC(O)=C(c2ccccc2)C1=N	0%	3%	-1%	nt	-8%	nt	nt	nt
CCCCCn1ccc(=N)cc1	0%	?	-1%	0.92µM*	15%	4%	-12%	1.6µM*
N=c1ccn(Cc2ccc(Cl)cc2)cc1	0%	?	-17%	nt	?	nt	nt	nt
CCC[C@H]1NC(=O)[C@H](C)N(C)C(=O)C(C)(C)C(=O)C(C)NC(=O)[C@H](Cc2ccc(OC)cc2)N(C)C(=O)[C@H](C(C)C)N(C)C(=O)CNC(=O)[C@H](CC(C)C)N(C)C(=O)CNC(=O)[C@H]([C@@H](C)CC)OC(=O)[C@H]1C (stereo partly specified)	-2%	1.5µM*	nt	1µM*	nt	3%	?	1.8µM*
Cc1cc(=O)n(CC(=O)N2CCN(c3ccccc3F)CC2)c2c1c(C)nn2C	1%	-6%	nt	8.2µM*	21%	1%	-7%	?
Cc1cc(C(=O)COC(=O)c2ccc(N)c([N+](=O)[O-])c2)c(C)n1-c1ccc2c(c1)OCO2	6%	-11%	7%	5.8µM*	7%	-6%	-4%	?

Shown with two lines to a compound: 2 of the compounds above
Every second line gives: Nrf2 ARE act	A549 tox-1	Mito fusion yeast	Nrf2 inh	miR-21 FLuc	FLuc enzyme inh	A549 tox-2	Nrf2 ARE inh
> O=C(c1ccc(NS(=O)(=O)c2ccc(F)cc2)cc1)N1CCCCC1
  0%	1%	2%	-22%	nt	nt	nt	nt
> CCOc1ccc2c(c1)C(=NNC(=O)c1ccncc1)c1cc(OCC)ccc1-2
  3%	-18%	1%	5.8µM*	-19%	?	?	5.2µM*

Bioassay records as filed in PubChem BioAssay.
